{"source": "patent US12502351B2", "about": "“Receptor targeting constructs and uses thereof” (Cedars-Sinai Medical Center, priority 2014, dated 2025)", "test_system": "tumors", "assay": "Biodistribution in tumor-bearing mice, Xenogen imaging", "assay_type": "in vivo, mouse", "details": "12 nmol, tail vein", "excerpt": "Xenogen imaging and quantification of Alexa680-labeled […] (Tz) and BSA (12 nmol ea) after tail vein injection."}
{"substance": "trastuzumab", "values": [{"measurement": "distribution to the brain", "result": "in contrast"}]}
